# G9a inh = G9a (human) methyltransferase inhibition; AID 504332; 8.8% of 350,000 active; Potency, µM (doses to about 102 µM), for inactives: top-dose activity, negative = inhibition, hits mostly inhibitors; G9a H3K9 monomethylation, AlphaScreen, 2 h; further: potency means the concentration at half of the fitted maximal effect; on the % scale 0 is the no-effect control and ±100 the full control effect; nearly all actives have a fitted effect of over 75% in size
#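 Signal arises when biotinylated H3K9 peptide, once monomethylated, bridges streptavidin donor and antibody-captured acceptor beads. Enzyme at 20 nM was preincubated 15 min with test compounds; peptide 500 nM and SAM 20 uM then reacted for 2 h.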
# JMJD2E inh = inhibitors of human JMJD2E histone demethylase; JMJD2E catalytic domain, FDH-coupled NADH fluorescence (FDH is formaldehyde dehydrogenase); Potency, µM (top dose mostly 57.1 µM), inactives show at the top dose activity change, negative = inhibition, actives largely listed as inhibitors; 1.6% of 230,000 active; AID 2147; active means well fitted inhibition curve with a large enough effect, not every such curve was filed as active; inconclusive means small, poorly fitted or top-dose-only effect, or another doubt; inactive means no such curve, though single readings can be large or run the other way;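 further: potency means the concentration at half of the fitted maximal effect; 0% = wells with enzyme and -100% = buffer wells without enzyme; nearly all actives have a fitted effect of over 50% in size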
# ALDH1A1 block = blocks purified human ALDH1A1 activity. AID 1030. 7.3% of 220,000 active. Potency, µM (doses to about 75.3 µM), for inactives: top-dose activity, negative = inhibition, most hits filed as inhibitors. Purified ALDH1A1, NADH fluorescence, propionaldehyde substrate. P00352; active means well fitted inhibition curve with a large enough effect, not every such curve was filed as active; inconclusive means small, poorly fitted or top-dose-only effect, or another doubt; inactive means no such curve, though single readings can be large or run the other way;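 further: potency means the concentration at half of the fitted maximal effect; plate controls were no enzyme wells and a reference inhibitor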
# miR-21 reporter = raises the signal of a miR-21 reporter | HeLa miR-21 FLuc reporter, luciferase, 48 h | Potency, µM (highest dose often 38.3 µM), inactives show at the highest dose reporter change, positive = more light | 340,000 tested, under 10 active | AID 2288; active = well fitted rising curve with a large enough effect; inconclusive = small, poorly fitted or top-dose-only effect; inactive = no such curve, though single readings can be large or run the other way;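 note: % of control where 0% means no effect; miR-21 action dims this reporter so a rising signal means less miR-21 action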
#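 HeLa miR-21-FLuc reporter line, endogenous miR-21; 2000 cells/well in DMEM/10% FBS; compound titration up to ~40uM final, 48 h, 37 degree Celsius; luciferase detection reagent, 15 min lysis, CCD luminescence.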
# Lamin A splicing = modulators of lamin A splicing; HeLa LMNA splicing GFP/RFP minigene ratio, 48 h; Potency, µM (series often up to 46.1 µM), for the others: at the highest dose ratio change, negative = inhibition, usual class: inhibitors; 0.01% of 200,000 active; AID 1487; active means well fitted inhibition curve with a large enough effect in the signal ratio, with a control signal flat, not every such curve was filed as active; inconclusive means small, poorly fitted or top-dose-only effect, or effect the other way, or a change in a side signal; the % refers to the signal ratio; further: potency means the concentration at half of the fitted maximal effect; on the % scale 0 is the no-effect control and ±100 the full control effect
#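 Read-out is the ratio of GFP to DsRed2 object intensity, acquired by 488 nm laser-scanning cytometry on HeLa lamin A-EGFP minigene reporter cells. Compound incubation 48 hrs at 37 °C in Opti-MEM with 2% FBS; DMSO 0.5% final.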
# Sfp PPTase inh = inhibitors of Bacillus subtilis Sfp phosphopantetheinyl transferase | Q9F4F7 | Biochemical Sfp PPTase activity, qHTS | Potency, µM, inactives show max response, negative = inhibition, most hits filed as inhibitors | 310,000 tested, 3.5% active | AID 1490; active = well fitted inhibition curve with a large enough effect; inconclusive = small, poorly fitted or top-dose-only effect, or another doubt; inactive = no such curve, though single readings can be large or run the other way;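 note: the enzyme is Sfp with the accession as filed and its product quenches rhodamine fluorescence; potency is the fitted concentration of half-maximal effect; 0% = enzyme reaction without inhibitor and -100% = no enzyme wells; top concentration of the series not given in the record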
#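 Buffer: 50 mM Hepes-Na pH 7.6, 10 mM MgCl2, 0.01% Nonidet P-40, 0.01% BSA. Enzyme 15 nM, pre-exposed to compound 15 min; substrates then added and fluorescence change tracked over 30 min.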
# Numbers without * were called inactive; ? = inconclusive; . = no result; [ ] = remark or other dose. Only some compounds are listed: those with a hit (about 13% of all), similar ones and a draw of the others. Unless noted, the call rests on the fitted dose curve; in most records, active means well fitted curve in the direction sought with a large enough effect; inconclusive means small, poorly fitted or top-dose-only effect, or another doubt; inactive means no such curve, though single readings can be large; an effect the other way counts as inactive or inconclusive.
no. | Compound | G9a inh | JMJD2E inh | ALDH1A1 block
1 | COC1OC(CO)C(OC2OC(C(=O)O)C(OC3OC(COS(=O)(=O)O)C(OC4OC(C(=O)O)C(OC5OC(CO)C(OC6OC(C(=O)O)C(OC7OC(COS(=O)(=O)O)C(OC8OC(C(=O)O)=C[C@H](O)C8OS(=O)(=O)O)C(O)C7NC(C)=O)[C@@H](O)C6O)C(O)C5NC(C)=O)[C@@H](O)C4O)C(O)C3NC(C)=O)[C@@H](O)C2O)C(O)C1NC(C)=O (some centres not stated) | ? | 6% | -3%
2 | Cc1ccccc1-c1nc(CN2CCN(C(=O)c3ccco3)CC2)c(C)o1 | 50µM* | . | .
3 | CCOc1ccc(CN2CCN(C(=O)c3ccco3)CC2)cc1 | 32µM* | . | .
4 | CCOc1ccc(OCC(=O)OCC(=O)N2CCN(C(=O)c3ccco3)CC2)cc1 | 32µM* | . | .
5 | CCOc1ccccc1-c1nc(CN2CCN(C(=O)c3ccco3)CC2)c(C)o1 | -15% | . | .
6 | CCOc1ccccc1-n1c(CN2CCN(C(=O)c3ccco3)CC2)nc2ccccc2c1=O | 14µM* | -5% | ?
7 | COc1ccc(CN2CCN(C(=O)c3ccco3)CC2)cc1 | 15%[59 µM] | -5% | ?
8 | O=C(c1ccco1)N1CCN(Cc2ccc(F)cc2)CC1 | 11µM* | . | .

no. | miR-21 reporter | Lamin A splicing | Sfp PPTase inh
1 | . | ? | 14%
2 | -7% | . | 4%
3 | -3% | . | -17%
4 | . | . | .
5 | -5% | . | 10%
6 | -12% | ? | ?
7 | -1% | -14% | 6%
8 | -1% | . | -19%

# Record cards, as listed above. Order of screens: G9a inh, JMJD2E inh, ALDH1A1 block, miR-21 reporter, Lamin A splicing, Sfp PPTase inh
# CCOc1ccccc1-c1nc(CN2CCN(C(=O)c3ccco3)CC2)c(C)o1 reads -15%, ., ., -5%, ., 10%
# Cc1ccccc1-c1nc(CN2CCN(C(=O)c3ccco3)CC2)c(C)o1 reads 50µM*, ., ., -7%, ., 4%
# CCOc1ccccc1-n1c(CN2CCN(C(=O)c3ccco3)CC2)nc2ccccc2c1=O reads 14µM*, -5%, ?, -12%, ?, ?
# CCOc1ccc(CN2CCN(C(=O)c3ccco3)CC2)cc1 reads 32µM*, ., ., -3%, ., -17%

# Carrying on.
no. | Compound | G9a inh | JMJD2E inh | ALDH1A1 block
9 | O=C(c1ccco1)N1CCN(Cc2nc(Cc3ccccc3)no2)CC1 | . | 14% | 22µM*
10 | O=C(c1ccco1)N1CCN(Cc2ccccc2Br)CC1 | 20µM* | . | .
11 | O=C(c1ccco1)N1CCN(CCCCOc2cccc3ccccc23)CC1 | 45µM* | ? | -6%
12 | O=C(Cc1ccc(Br)cc1)N1CCN(C(=O)c2ccco2)CC1 | 8% | . | .
13 | O=C(c1ccco1)N1CCN(Cc2ccc(F)cc2Cl)CC1 | -7% | . | .
14 | CCOc1cc(C(=O)N2CC(=O)Nc3ccc(F)cc3C2c2ccccc2)cc(OCC)c1OCC (configuration not stated) | 10%[59 µM] | . | .
15 | CCOC(=O)CCn1c(=O)c2cccn2c2cccnc21 | 14%[59 µM] | . | .
16 | O=C(c1ccco1)N1CCN(Cc2nnc(-c3ccccc3F)o2)CC1 | 71µM* | . | .

no. | miR-21 reporter | Lamin A splicing | Sfp PPTase inh
9 | -1% | . | -1%
10 | -55% | . | ?
11 | -11% | ? | ?
12 | -3% | . | 2%
13 | -52% | . | 6%
14 | 10% | . | .
15 | -11% | . | .
16 | 0% | . | 4%

# (cont.)
no. | Compound | G9a inh | JMJD2E inh | ALDH1A1 block
17 | O=C(c1ccc(F)cc1)N1CCN(Cc2ccccc2Br)CC1 | 10µM* | ? | ?
18 | O=C(c1ccccc1)N1CCN(Cc2c[nH]c3ccccc23)CC1 | 3%[59 µM] | 9% | 2%
19 | COc1cc(NS(=O)(=O)c2ccc(NC(=S)NC(=O)c3sc4ccccc4c3Cl)cc2)ncn1 | ? | 1% | 22µM*
20 | COc1ccc(C(=O)NC(=S)Nc2ccc(S(=O)(=O)Nc3cc(OC)ncn3)cc2)cc1 | ? | . | .
21 | COc1cc(NS(=O)(=O)c2ccc(NC(=O)c3ccc(Cl)cc3Cl)cc2)ncn1 | 69% | . | .
22 | COc1cc(NS(=O)(=O)c2ccc(NC(=S)NC(=O)c3ccco3)cc2)ncn1 | 50µM* | -8% | ?
23 | O=C(O)/C=C/c1ccc(OCc2cccc(F)c2)cc1 | -29% | 3% | -1%
24 | CN(C)C(=O)CSc1nnc([C@H](Cc2ccccc2)NC(=O)OC(C)(C)C)o1 | 40µM* | 19% | .

no. | miR-21 reporter | Lamin A splicing | Sfp PPTase inh
17 | -2% | -2% | ?
18 | -3% | ? | 13%
19 | -13% | -6% | -30%
20 | 5% | . | 5%
21 | -5% | . | 7%
22 | -9% | 19%[46 µM] | -11%
23 | 0% | . | 1%
24 | 0% | . | -5%

# Next part:
no. | Compound | G9a inh | JMJD2E inh | ALDH1A1 block
25 | C[C@H](NC(=O)OCc1ccccc1)c1nnc([C@H](Cc2ccccc2)NC(=O)OC(C)(C)C)o1 | 22%[59 µM] | -4% | .
26 | CC(C)(C)OC(=O)N[C@@H](Cc1ccccc1)c1nnc(SCC(N)=O)o1 | ? | -4% | .
27 | COC(=O)CS(=O)(=O)c1nnc([C@H](Cc2ccccc2)NC(=O)OC(C)(C)C)o1 | ? | -7% | 8.9µM*
28 | COC(=O)CSc1nnc([C@H](Cc2ccccc2)NC(=O)OC(C)(C)C)o1 | 18% | -1% | -5%
29 | Cc1cccc(CS(=O)(=O)c2nnc([C@H](Cc3ccccc3)NC(=O)OC(C)(C)C)o2)c1 | 10µM* | -7% | 22µM*
30 | Cc1cc2oc(C(=O)N(Cc3ccccc3)C3CCS(=O)(=O)C3)cc(=O)c2cc1C (configuration not stated) | -3%[59 µM] | . | .
31 | COCOc1cc(OC)ccc1C(=O)/C=C\c1ccc2c(c1)OCO2 | . | . | -17%[13.5 µM]
32 | CCC(=O)NC(=S)Nc1ccc2oc(-c3ccc(OC)cc3)nc2c1 | . | 4% | -7%

no. | miR-21 reporter | Lamin A splicing | Sfp PPTase inh
25 | 15% | . | 8%
26 | -1% | . | 10%
27 | ? | ? | -91%
28 | -4% | -1% | 1%
29 | ? | ? | 18µM*
30 | -13% | . | .
31 | . | . | 2%
32 | -27% | . | -5%

# Continued.
no. | Compound | G9a inh | JMJD2E inh | ALDH1A1 block
33 | COc1ccc(-c2nc3cc(NC(=S)NC(=O)Cc4ccccc4)ccc3o2)cc1 | -1%[59 µM] | 2% | 11µM*
34 | COc1ccccc1C(=O)Nc1ccc2oc(-c3ccc(F)cc3)nc2c1 | -6%[12.7 µM] | ? | ?
35 | O=C(O)/C=C/C(=O)NCc1cn(-c2ccccc2)nc1-c1cccc(Br)c1 | 35µM* | 1% | 0%
36 | O=C(c1cn(-c2ccccc2)nc1-c1cccc(Br)c1)N1CCOCC1 | -30% | 4% | 25µM*
37 | O=C(N/C(=C\c1cn(-c2ccccc2)nc1-c1ccc(Cl)cc1)C(=O)N1CCOCC1)c1ccccc1 | 27%[59 µM] | 2% | 6%
38 | O=C(N/C(=C/c1cn(-c2ccccc2)nc1-c1ccccc1)C(=O)N1CCOCC1)c1ccc(Cl)cc1Cl | 7%[59 µM] | 11% | 16µM*
39 | CC(OC(=O)CC1CCCCC1)C(=O)Nc1ccc(F)cc1 (configuration not stated) | 3% | . | .
40 | NC(=O)c1ccc[n+](CC(=O)c2ccc(F)cc2)c1 | ? | -6% | .

no. | miR-21 reporter | Lamin A splicing | Sfp PPTase inh
33 | -35% | -7% | -8%
34 | -14% | 4% | 50µM*
35 | 6% | . | 2%
36 | -6% | -19%[46 µM] | 9%
37 | -6% | -7% | 13%
38 | -8% | -11% | 12%
39 | . | . | .
40 | -1% | . | 31%

# Other structures:
no. | Compound | G9a inh | JMJD2E inh | ALDH1A1 block
41 | Cc1c(C(=O)Nc2cccc(F)c2)oc2c1-c1nn(Cc3c(F)cccc3Cl)cc1CC2 | 18%[59 µM] | . | .
42 | COc1ccc(CNC(=O)C(C(C)C)N2Cc3ccccc3C2=O)cc1 (configuration not stated) | -6%[59 µM] | . | .
43 | CCN=C(Nc1ccc2c(c1)OCO2)SC1CC(=O)N(c2ccc(OC)cc2)C1=O (configuration not stated) | 26%[59 µM] | 9% | ?
44 | C/C(CCc1ccc2c(c1)OCO2)=N\N=C1\NC(=O)CC(C(=O)Nc2ccccc2)S1 (configuration not stated) | 15% | 6% | 5%

no. | miR-21 reporter | Lamin A splicing | Sfp PPTase inh
41 | -6% | 6%[46 µM] | .
42 | 21% | ? | .
43 | 2% | ? | -6%
44 | -4% | -5% | 4%

# Screens from PubChem.
